The source of these data is paper PMC11310081, “Deep-learning-enabled antibiotic discovery through molecular de-extinction” (Nature Biomedical Engineering, 2024).

≈ marks a conversion by molar mass, not a printed value. Some results are limits rather than exact numbers.

In general, CC50 refers to the concentration giving 50% cytotoxicity. The low end stands for greater toxicity to the cells, the high end for lower toxicity to the cells.

The subject of one data set is P. aeruginosa PA14. The format is cell-based, Pseudomonas aeruginosa. The conditions noted are these: PA14, 20 h. The source says: The following Gram-negative bacteria were used in our study: A. baumannii ATCC 19606, E. coli ATCC 11775, E. coli AIC221 (E. coli MG1655 phnE_2::FRT), E. coli AIC222 (E. coli MG1655 pmrA53 phnE_2::FRT (colistin resistant)), K. pneumoniae ATCC 13883, P. aeruginosa PAO1 and P. aeruginosa PA14. The following Gram-positive bacteria were also used in our study: S. aureus ATCC 12600, S. aureus ATCC BAA-1556 (methicillin-resistant strain), E. faecalis ATCC 700802 (vancomycin-resistant strain) and E. faecium ATCC 700221 (vancomycin-resistant strain). Bacteria were grown from frozen stocks and plated on Luria–Bertani (LB) or Pseudomonas isolation agar plates (P. aeruginosa strains) and incubated overnight at 37 °C. After the incubation period, a single colony was transferred to 5 ml of LB medium, and cultures were incubated overnight (16 h) at 37 °C. The following day, an inoculum was prepared by diluting the overnight cultures 1:100 in 5 ml of the respective media and incubating them at 37 °C until bacteria reached logarithmic phase (OD600 = 0.3–0.5).
The in vitro antimicrobial activity of the peptides was assessed by using the broth microdilution assay. […] Aqueous solutions of the peptides were added to the plate at concentrations ranging from 1 to 64 μmol l^−1. […] The optical density of the plates was measured at 600 nm using a spectrophotometer. […]

Another data set relates to HEK293T cells. The conditions noted are these: 24 h. On the procedure: HEK293T cells were obtained from the American Type Culture Collection (CRL-3216). The cells were cultured in high-glucose Dulbecco’s modified Eagle’s medium supplemented with 1% penicillin and streptomycin (antibiotics) and 10% fetal bovine serum and grown at 37 °C in a humidified atmosphere containing 5% CO2.
One day before the experiment, an aliquot of 100 μl of the cells at 50,000 cells per ml was seeded into each well of the cell-treated 96-well plates used in the experiment (that is, 5,000 cells per well). […] After the incubation period, we performed the 3-(4,5-dimethylthiazol-2-yl)-2,5-diphenyltetrazolium bromide tetrazolium reduction assay (MTT assay)[53]. The MTT reagent was dissolved at 0.5 mg ml^−1 in medium without phenol red and was used to replace cell culture supernatants containing the peptides (100 μl per well), and the samples were incubated for 4 h at 37 °C in a humidified atmosphere containing 5% CO2 yielding the insoluble formazan salt. The resulting salts were then resuspended in hydrochloric acid (0.04 mol l^−1) in anhydrous isopropanol and quantified by spectrophotometric measurements of absorbance at 570 nm. All assays were done as three biological replicates.
Unless otherwise stated, all assays were performed in three independent biological replicates as indicated in each figure legend and Methods sections. The cytotoxic activities values were estimated using non-linear regression based on the range of concentrations screened and were shown as the values that cause lysis of 50% of the cells in the experiment. Two technical replicates were performed in the cytotoxicity assays within each of the three biological replicates.

As for `CC[C@H](C)[C@H](NC(=O)[C@H](CC(N)=O)NC(=O)[C@H](CCCCN)NC(=O)[C@H](CCCNC(=N)N)NC(=O)[C@H](Cc1ccccc1)NC(=O)[C@@H](NC(=O)[C@H](CC(C)C)NC(=O)[C@H](CCCNC(=N)N)NC(=O)[C@H](CCCNC(=N)N)NC(=O)CNC(=O)[C@H](CCCNC(=N)N)NC(=O)[C@H](C)NC(=O)[C@H](CCCNC(=N)N)NC(=O)[C@@H](NC(=O)[C@H](CC(C)C)NC(=O)[C@H](CO)NC(=O)[C@H](Cc1ccc(O)cc1)NC(=O)[C@@H](NC(=O)[C@H](CCCNC(=N)N)NC(=O)[C@H](CS)NC(=O)[C@H](Cc1ccc(O)cc1)NC(=O)[C@@H](N)CC(C)C)[C@@H](C)CC)C(C)C)[C@@H](C)O)C(=O)N[C@@H](CO)C(=O)N[C@@H](CCCCN)C(=O)O` [Hydrodamin-1], in the data set on P. aeruginosa PA14, the “Minimal inhibitory concentration, P. aeruginosa PA14” value came out at 16 µM (≈ 47.5 µg/mL). The same molecule came in with a CC50 in the data set on HEK293T cells above 128 µM.
